# Values quoted from earlier work as cited in patent US20070281995A1, “Creatine analog prodrugs, compositions and uses thereof” (XenoPort, Inc., priority 2006, published 2007).
# Conditions: ALS
structure (smiles),measurement,value
Nc1nc2ccc(OC(F)(F)F)cc2s1 [riluzole],extension of survival,about three
